pIC50: −log10 of the molar value.
Molecular target: T1, CGRP receptor complex (Homo sapiens, UniProt O60894+Q16602)
T1 construct: SK-N-MC (neuroepithelioma cells) from National Science and Technology Infrastructure; host or cells: SK-N-MC
Assay: determination of cell functional antagonism - cAMP determination
Assay type: cell-based
Settings: inhibition of CGRP-stimulated cAMP formation in SK-N-MC cells
Experimental: A CGRP receptor complex was coupled with Gs in G protein, the combination of CGRP and CGRP receptor complex led to Gs activation, and cAMP (3',5'-cyclic adenosine monophosphate) was produced.
The ability of the compound of the present invention to inhibit CGRP-stimulated cAMP formation in SK-N-MC cells was determined.
SK-N-MC (neuroepithelioma cells) from National Science and Technology Infrastructure - Biomedical Materials and Cell Resources.
The SK-N-MC cells were resuscitated and cultured in advance, and a cell confluence degree should be 70%-80% before use.
4.2 A sample dilution, a tested compound and α-CGRP (human) were prepared.
The SK-N-MC cells were digested, centrifuged, then resuspended with the sample dilution, and inoculated into a 384-well plate. Each well was added with the α-CGRP (human) and the tested compound respectively, and blown and mixed evenly. The well plate was adhered with a sealing film, and placed on an enzyme-labeled incubator to incubate at 25°C.
4.4 cAMP determination: carried out according to LANCE Ultra cAMP Kit specification EucAMP tracer and ULight-anti-cAMP working solutions were prepared in the dark, respectively added into the well plate, and blown and mixed evenly. […]
4.5 A luminescence value was read by a chemiluminescent module of an automatic enzyme-labeled instrument.

Chains of the proteins cited; added tags and fusions are not shown. Residues count along the entry.
UniProt O60894, 27-148: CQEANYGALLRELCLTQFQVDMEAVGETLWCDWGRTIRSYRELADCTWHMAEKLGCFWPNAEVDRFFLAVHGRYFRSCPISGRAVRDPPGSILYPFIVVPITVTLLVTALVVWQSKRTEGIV
UniProt Q16602, 23-461: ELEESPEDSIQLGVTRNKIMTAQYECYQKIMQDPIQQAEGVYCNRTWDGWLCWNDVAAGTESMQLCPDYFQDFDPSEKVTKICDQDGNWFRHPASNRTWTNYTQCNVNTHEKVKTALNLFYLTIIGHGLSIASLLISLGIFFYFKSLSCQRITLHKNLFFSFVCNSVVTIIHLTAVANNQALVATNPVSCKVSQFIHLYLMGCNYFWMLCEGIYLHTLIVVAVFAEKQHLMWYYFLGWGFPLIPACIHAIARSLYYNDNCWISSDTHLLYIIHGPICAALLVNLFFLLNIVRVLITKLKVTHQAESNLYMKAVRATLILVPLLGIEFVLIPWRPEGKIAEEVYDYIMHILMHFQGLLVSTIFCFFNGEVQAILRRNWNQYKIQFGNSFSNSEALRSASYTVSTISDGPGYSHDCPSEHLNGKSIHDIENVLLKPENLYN

| Compound | pIC50 |
| --- | --- |
| Cc1cc(C[C@H](NC(=O)N2CCC(c3cc4c([nH]c3=O)SCCC4)CC2)C(=O)N2CCN(C3CCN(C)CC3)CC2)cc2cn[nH]c12 [Example 28, (S)-N-(3-(7-methyl-1H-indazole-5-yl)-1-(4-(1-methylpiperidine-4-yl)piperazine-1-yl)-1-oxopropan-2-yl)-4-(7-oxo-3,4,7,8-tetrahydro-2H-thiopyrano[2,3-b]pyridine-6-yl)piperidine-1-formamide] | 8.00 |
| [2H]C([2H])([2H])N1CCC(N2CCN(C(=O)[C@@H](Cc3cc(C)c4[nH]ncc4c3)NC(=O)N3CCC(c4cc5c([nH]c4=O)SCC5)CC3)CC2)CC1 [Example 29, (R)-N-(3-(7-methyl-1H-indazole-5-yl)-1-(4-(1-(methyl-d3)piperidine-4-yl)piperazine-1-yl)-1-oxopropan-2-yl)-4-(6-oxo-2,3,6,7-tetrahydrothieno[2,3-b]pyridine-5-yl)piperidine-1-formamide] | 9.64 |

Reference: EP4781986A1, “PHARMACEUTICAL COMPOSITION HAVING IMPROVED PHARMACOKINETIC PROPERTIES” (Sichuan Purity Pharmaceutical Co., Ltd., priority 2023, dated 2025)
